The values that follow come from PubChem BioAssay (Tox21).

Sequences of proteins named here, by UniProt entry; tags and fusion partners are left off. A change or cut given only in a name is not applied to a line headed by its entry.
UniProt P30968: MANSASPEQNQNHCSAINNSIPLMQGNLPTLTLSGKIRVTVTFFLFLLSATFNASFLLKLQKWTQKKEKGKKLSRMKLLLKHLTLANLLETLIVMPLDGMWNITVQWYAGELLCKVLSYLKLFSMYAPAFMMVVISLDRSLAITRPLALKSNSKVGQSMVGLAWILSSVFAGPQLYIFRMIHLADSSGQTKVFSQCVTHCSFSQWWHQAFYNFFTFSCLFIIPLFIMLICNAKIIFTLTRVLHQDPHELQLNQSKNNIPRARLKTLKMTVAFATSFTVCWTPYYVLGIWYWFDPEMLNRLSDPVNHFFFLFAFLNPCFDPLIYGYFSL

The entries are a selection whose mix differs from that of the whole data set. The source made the active and inactive calls. The call rests on the fitted dose curve. Entries that show only a call come without a potency.
Potency means the concentration at half of the fitted maximal effect.

This test deals with Gonadotropin-releasing hormone receptor (Homo sapiens) (UniProt P30968). In words: Human gonadotropin-releasing hormone receptor (GnRHR) small molecule agonists, calcium flux assay in GnRHR-HEK293 cells (AID 1920063). Further: nearly all actives have a fitted effect of over 35% in size. Conditions: calcium flux fluorescence, agonist mode; series mostly up to 57.6 µM. The text has this:
National Center for Advancing Translational Sciences [NCATS]
Division of Preclinical Innovation [DPI]
U.S. Environmental Protection Agency [EPA]
National Institutes of Environmental Health Sciences [NIEHS]
National Toxicology Program [NTP]
U.S. Food and Drug Administration [FDA]
Gonadotropin-releasing hormone receptor (GnRHR) is a G-protein-coupled receptor (GPCR) and acts (through phospholipase C) to increase intracellular inositol trisphosphate and then release intracellular calcium stores. Cell-based GnRHR-Hek293 calcium influx assay is using HEK293 cells that have been genetically engineered to express the human GnRHR, which activity can be measured by calcium signaling. A compound/drug can activate (agonist) GnRHR that can be monitored by levels of intracellular calcium.
GnRHR-HEK293 cells developed by Codex Corp contain human GnRHR reporter gene, which was stably integrated into HEK 293 cells. The compound activation can be detected by fluorescence intensity via calcium flux assay. This cell line has been used to screen the Tox21 10K compound library to identify GnRHR agonists.
GnRHR-Hek293 cells were dispensed at 1500cells/4uL/well in 1536-well black wall/clear bottom plates using a multidrop dispenser. After the assay plates were incubated at a 37 C/5% CO2 incubator for 18 hours, 4 uL of Calcium Dye Solution was added to each well. The plates were incubated at 37 C for 1 hour. For agonist mode, 23 nL of compounds dissolved in DMSO, positive controls or DMSO only was transferred to the assay plate by a pin tool station. The fluorescence intensity in the plates was measured using FDSS 7000EX kinetic plate reader with a filter set of Ex/Em=480/540 for 3 min at 1 sec intervals. Each test compound was measured at 15 concentrations and in triplicates.
In general terms: Calcium assays in cells follow changes in intracellular calcium, usually with a dye or a luminescent sensor.
For the compound `CN(C(=O)Cc1cccc2occc12)[C@H]1CC[C@@]2(CCCO2)C[C@@H]1N1CCCC1`, the Potency entry was “inactive”.

On to `CN(C(=O)Cc1ccc(Cl)c(Cl)c1)[C@H]1CC[C@@]2(CCCO2)C[C@@H]1N1CCCC1`, for which the Potency result was “inactive”. With `CCOC(=O)Cl`, the Potency result was “inactive”.

For `O=P(Cl)(Cl)c1ccccc1`, the Potency entry is “inactive”. Consider `O=[N+]([O-])c1ccc([N+](=O)[O-])cc1`, for which the Potency entry is “inactive”. The same measure, in the same setting: in the case of `CCCCO[P+](=O)OCCCC` it was “inactive”; in that of `N#CSc1ccc([N+](=O)[O-])cc1[N+](=O)[O-]`, “inactive”; in that of `CN(C(=O)Cc1ccccc1)[C@H]1CC[C@@]2(CCCO2)C[C@@H]1N1CCCC1`, “inactive”.

On to `CCCCOP(OCCCC)OCCCC`, for which the Potency entry is “inactive”. Regarding `CCCCC(CC)CO[P+](=O)OCC(CC)CCCC` (stereo not given), the Potency result is “inactive”. Regarding `CCCCCCCCCCCCCC[P+](CCCCCC)(CCCCCC)CCCCCC`, the Potency entry is “inactive”.

Consider `O=[As]c1ccccc1` (stereo not given), for which the Potency is active: 34.7 µM. The same measure, in the same setting: then `O=[N+]([O-])c1ccc(S(=O)(=O)O)c([N+](=O)[O-])c1`, with “inactive”; and `Cc1cc([N+](=O)[O-])c(O)c([N+](=O)[O-])c1`, with “inactive”; and `CC(C)CCCCCCCOP(OCCCCCCCC(C)C)Oc1ccccc1`, with “inactive”.

For `NC(=O)Nc1ccc([As](=O)(O)O)cc1`, the Potency result was “inactive”. Regarding `COP(=S)(Cl)OC`, the Potency entry was “inactive”.

In the case of `O=C(Cl)OCCOC(=O)Cl`, the Potency result was “inactive”. Take `O=P(Cl)(Oc1ccccc1)Oc1ccccc1`: the Potency result is “inactive”. Same read-out and setting: in the case of `O=[P+](Oc1ccccc1)Oc1ccccc1` it was “inactive”; in that of `O=[p+]1oc2ccccc2c2ccccc21` (stereo not given), “inactive”. `Cc1cc([N+](=O)[O-])cc([N+](=O)[O-])c1O`: the Potency result was “inactive”.

In the case of `CCNC(C)Cc1ccc2c(c1)OCO2` (stereo not given), the Potency entry is “inactive”. In the case of `O=C(Cl)Oc1ccccc1`, the Potency result was “inactive”. Still for that read-out and setting: then `ClP(Cl)c1ccccc1`, with “inactive”. Regarding `CN(N=O)C(=N)N[N+](=O)[O-]`, the Potency result was “inactive”. Same read-out and setting: in the case of `COC(=O)Cl` it was “inactive”. `CCOP(=S)(CC)Sc1ccccc1` (stereo not given): the Potency result is “inactive”.

Regarding `CC(C)OP(=S)(OC(C)C)SCCNS(=O)(=O)c1ccccc1`, the Potency result is “inactive”. For the compound `CCC(C)(OOC(C)(C)C)OOC(C)(C)C`, the activity change was inactive: 0.278% [at 11.8 µM, hits give high values].
